SMILES strings stand for the structures. pIC50: −log10 of the molar value.

The target in the experiment is T1, uterine OT receptors (Rattus norvegicus, UniProt P70536).
T1 construct: from tissue; host or cells: uterus of DES-treated rats, crude membrane preparation
T1 sequence (P70536 1-388): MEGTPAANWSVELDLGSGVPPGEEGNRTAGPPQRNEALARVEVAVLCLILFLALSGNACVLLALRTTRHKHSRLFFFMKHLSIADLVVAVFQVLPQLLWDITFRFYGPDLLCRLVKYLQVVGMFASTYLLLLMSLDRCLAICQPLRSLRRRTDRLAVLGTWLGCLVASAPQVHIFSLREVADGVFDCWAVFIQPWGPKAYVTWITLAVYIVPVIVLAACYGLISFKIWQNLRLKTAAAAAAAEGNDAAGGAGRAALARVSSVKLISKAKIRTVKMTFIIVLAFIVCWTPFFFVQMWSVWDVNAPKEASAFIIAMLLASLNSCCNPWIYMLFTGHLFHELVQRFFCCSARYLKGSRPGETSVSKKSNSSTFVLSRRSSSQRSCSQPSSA
The experiment is described as follows: [³H]OT radioligand binding assay, crude uterine membrane preparation. To be noted: 1 nM [³H]OT, uteri of DES-treated rats, 60 min, 22°C; read-out: Inhibition Oxytocin IC50. The method, then:
Competition studies were conducted at equilibrium (60 min; 22°C) using 1 nM [³H]OT in the following assay buffer: 50 mM Tris-HCl, 5 mM MgCl₂, and 0.1% BSA, pH 7.4.

Regarding `Cc1ccc(S(=O)(=O)N2CCC3(C=Cc4ccccc43)CC2)cc1` [Example 2], the pIC50 was 5.33.

The term pIC50 denotes the negative decadic logarithm of the IC50, by convention in mol/L.
